Data as given in patent US20240317741A1, “NAPHTHYRIDINE DERIVATIVE AS ATR INHIBITOR AND METHOD FOR PREPARING SAME” (WIGEN BIOMEDICINE TECHNOLOGY (SHANGHAI) CO., LTD., priority 2021, published 2024).

Experiments:
MIA PaCa-2 cells [1] = assay: In-vitro anti-proliferative activity against MIA PaCa-2 cells; assay type: cell-based; details: Homo sapiens, 72 h after dosing, intracellular ATP content
Experimental: (§1) MIA PaCa-2 cells were seeded on a 384-well plate at 3000 cells/well. After overnight adherence culture, DMSO or the compounds serially diluted 1:5 from 5 μM were added. […] The inhibition percentage of viable cells by the compounds was calculated by comparing with the DMSO group, and the IC50 value was calculated.

[2] = tested on: Human colon cancer HT29 cells; assay: In vivo efficacy in HT-29 model, alone and with gemcitabine; design: species or system nude mouse
Experimental: After being subcultured, the cells were collected when they reached the desired amount. 1×10^7 HT29 cells were injected into the left dorsal side of each nude mouse, and the animals were randomly grouped for administration after tumors grew to 100-200 mm^3. The groups were as follows: a solvent control group of 6 mice, a single drug group of 15 mg/kg gemcitabine (GMC), and a combination group of 15 mg/kg gemcitabine and a compound. Gemcitabine was administered intraperitoneally with PBS as a vehicle once a week. The compounds were administered 3 days a week and interrupted for 4 days (3 on/4 off), for 21 consecutive days, and the vehicle was a 0.5% MC suspension containing 1% tween-80. On Tuesday and Thursday each week, tumor volumes and body weight of the mice were measured, and the nude mice were sacrificed on day 21 after the administration. […] The toxicity of the compounds was evaluated according to the body weight of the mice.

MIA PaCa-2 cells [3] = assay: In-vitro anti-proliferative activity in combination with gemcitabine against MIA PaCa-2 cells; assay type: cell-based; details: in combination with 20 nM gemcitabine, 72 h after dosing
Experimental: as §1, with “cells/well, and 20 nM gemcitabine was added.” for “cells/well.”, “100 nM” for “5 μM”

[4] = tested on: Human colon cancer LOVO cells; assay: In vivo efficacy in LoVo model; design: species or system nude mouse; details: mouse, po, 20 mg/kg
Experimental: After being subcultured, the cells were collected when they reached the desired amount. 1×10^7 LOVO cells were injected into the left dorsal side of each nude mouse, and the animals were randomly grouped for administration after tumors grew to 100-200 mm^3. The groups were as follows: a solvent control group of 8 mice and a compound group of 8 mice. The compounds were administered orally 3 days a week and interrupted for 4 days, for 21 consecutive days. The vehicle was a 0.5% MC suspension containing 1% tween-80. On Tuesday and Thursday each week, tumor volumes and body weight of the mice were measured, and the nude mice were sacrificed on day 21 after the administration. […] The toxicity of the compounds was evaluated according to the body weight of the mice.

Row | Molecule | IC50 (MIA PaCa-2 cells [1]) | TGI(%) ([2]; mouse, in vivo) | TGI(%) ([2]; mouse, in vivo, po, 20 mg/kg) | IC50 (MIA PaCa-2 cells [3]) | TGI(%) [4] | TGI(%) ([2]; HT-29 model in nude mice, single agent, 20 mpk BID PO, 3on/4off, day 21)
1 | C[C@@H]1COCCN1c1cc(-c2ccnn2C)c2ccnc(-c3ccn[nH]3)c2n1 [BAY1895344, reference compound] | < 1000 nM | 74.3% | 53.1% | 1.71 nM | 71.2% | –
2 | (R)-1-(2-(3-methylmorpholino)-8-(1H-pyrazol-5-yl)-1,7-naphthyridin-4-ylmethyl)cyclohexane-1-carbonitrile [Compound 25] | – | – | – | – | – | 53.1%
